Test results published in patent US20040013631A1, “Skin care cosmetic compositions containing carboxyalkylates of branched alcohols and/or alkoxylates thereof” (Unilever Home & Personal Care USA, Division of Conopco, priority 2002, published 2004).

Test system: human sebocytes
Test: Inhibition of sebocyte lipogenesis (14C-acetate label remaining in sebocytes)
Format: cell-based

C13 isoalcohol carboxyethylate (TDCE) [Compound 1]
effectiveness in inhibition of lipogenesis relative to TDCM (comparison of the data in Table 2): almost twice as effective as TDCM
activity as sebum suppressant relative to the branched alcohol from which it is derived (ratio of IC50 values of Table 3): about 20 times
